Experimental data published in patent US20100256109A1, “Azetidines As EP2 Antagonists” (priority 2007, published 2010).

Sequences of proteins named here, by UniProt entry; tags and fusion partners are left off.
UniProt P43116, whole entry: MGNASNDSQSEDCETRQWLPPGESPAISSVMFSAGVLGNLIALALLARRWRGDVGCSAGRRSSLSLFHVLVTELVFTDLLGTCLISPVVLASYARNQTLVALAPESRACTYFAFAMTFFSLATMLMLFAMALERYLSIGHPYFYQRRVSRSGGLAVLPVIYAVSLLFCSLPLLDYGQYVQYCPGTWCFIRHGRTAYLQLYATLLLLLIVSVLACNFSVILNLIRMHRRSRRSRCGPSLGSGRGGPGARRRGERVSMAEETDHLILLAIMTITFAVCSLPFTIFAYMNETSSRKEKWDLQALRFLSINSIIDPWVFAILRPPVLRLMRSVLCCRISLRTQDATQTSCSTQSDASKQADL

The compounds below were run against recombinant human EP-2 receptor (Homo sapiens, UniProt P43116) (assay: In vitro antagonist potency against recombinant human prostaglandin E2 (EP-2) receptor in CHO cells (cAMP)). Details: read-out: EP2 Ki; CHO cells expressing recombinant human EP-2 receptor, stimulated with PGE2 5 nM; cAMP readout; Ki from IC50 by Cheng-Prusoff.
Procedure: 1.0 Measurement of In Vitro Antagonist Potency (IC50) of Compounds Against Recombinant Human Prostaglandin E2 Receptor in CHO Cells.
The prostaglandin E2 (EP-2) receptor is Gs coupled and agonism of the receptor by PGE2 results in activation of intracellular adenylate cyclase enzymes that synthesise the second messenger signalling molecule, adenosine 3′,5′-cyclic monophosphate (cAMP). CHO cells expressing the recombinant human EP-2 receptor are stimulated with PGE2 (5 nM) equivalent to approximately […] values to give the maximal cAMP signal. Decreases in cAMP levels following treatment of stimulated recombinant EP-2 cells with potential antagonist compounds were measured and potency (IC50) calculated as follows.
A Chinese hamster ovary (CHO) cell line stably transfected with full length cDNA encoding human Prostaglandin E2 was established using standard molecular biology methods. Test compounds were dissolved in dimethyl sulphoxide (DMSO) at 4 mM. 11 point half log unit increment dilution series of test compound were prepared in DMSO then diluted 1 in 40 in a buffer comprised of phosphate buffered saline (PBS) and 0.05% pluronic F-127 surfactant. Freshly cultured cells at 80-90% confluence were harvested and re-suspended in 90% growth media/10% DMSO. The cells were frozen using a planar freezer and stored in frozen aliquots in cryovials in liquid nitrogen until the day of the experiment. A vial of cells was defrosted in a 37° C. water bath for 2 min, then transferred to 10 ml of Dulbecco's Modified Eagle's Medium (DMEM). The cells were then centrifuged for 5 min at 1000 g and the pellet re-suspended at 1,000,000 cells/ml in DMEM. 5,000 cells (5 ul) were added to 5 ul of the compound dilution series in a 384 well assay plate and pre-incubated for 30 min at 37° C. 5 ul of agonist (15 nM PGE2 in PBS to give 5 nM FAC) was added and plates further incubated for 90 min at 37° C. The relative cAMP concentration in each well was then measured using a β-galactosidase enzyme fragment complementation method purchased in kit form as the Discoverx cAMP II kit from GE Healthcare, UK. […] Sigmoidal curves were fitted to plots of log10 inhibitor concentration vs. percent effect. IC50 estimates were determined as the concentration of test compound giving an effect half way between the bottom and top asymptotes of the sigmoidal dose response curve. Each experiment included an IC50 determination for the literature compound as a standard to track assay consistency and allow fair comparison between values obtained in different experiments. The EC50 of PGE2 is used in combination with the ligand concentration in the assay to determine Ki values for antagonist dose responses using the Cheng-Prusoff equation. […]
For COc1ccc(-c2nnn(CC3(C(=O)O)CN(C(=O)c4ccc(F)cc4)C3)n2)cc1OC, the Ki was 85.1 nM.
O=C(c1ccc(Cl)cc1)N1CC(Cn2nnc(-c3ccc(F)c(F)c3)n2)(C(=O)O)C1 showed a Ki of 24.5 nM.
With CS(=O)(=O)c1ccc(-c2nnn(CC3(C(=O)O)CN(C(=O)c4ccc(F)cc4)C3)n2)cc1 the Ki was 105 nM.
With O=C(c1ccc(F)cc1)N1CC(Cn2nnc(-c3cccc(F)c3)n2)(C(=O)O)C1 the Ki was 42.1 nM.
